A short description of the data set: Miscibility of film-forming agent with physiological saline solution (uniformity of solution). In kind it is physicochemical. The following applies: film-forming agent mixed with same weight of physiological saline solution 9 g/L, room temperature, shaken 20 seconds, macroscopically checked.
As for “methacrylate of methoxypolyethylene glycol 200 [PE-200-OMe]”, the “Solubility (Uniformity of Reference Solutions)” value (“Solubility” below) is on record as “not dissolved”.

As to “dimethacrylate of ethylene glycol tetradeca-mer [Example 14G]”, the “Solubility” value is “dissolved”.

On to “dimethacrylate of ethylene glycol nona-mer [Example 9G]”, for which the “Solubility” value is recorded as “no dissolved”.

As to “monomethacrylate of ethylene glycol tetra- or penta-mer [HO-4ED]”, the “Solubility” value is “dissolved”.

The record behind these values is patent publication US6750268B2, “Bonding composition” (Kuraray Co., Ltd., priority 1999, dated 2004).
